# Read-outs that look alike come from different tables or passages of the source.
# Columns and labels:
# [1] = tested on: HELA cells; experiment: Endosome disruption assay (FITC-dextran, propidium iodide); assay type: cell-based; conditions: 50 μg; 25 min plus 35 min at 37° C.
# Experimental: HeLa cells were plated in 6-well tissue culture dishes containing microscope slide coverslips and grown in Delbecco's Modified Eagle's Medium (DMEM)+10% fetal calf serum+penn/strep for 24–48 hours until 30–60% confluent. […] After 25 min, media containing FITC-dextran±melittin was removed, the cells were washed twice with 1 ml 37° C. DMEM lacking FITC-dextran and melittin, and cells were incubated for an additional 35 min at 37° C. in 1 ml fresh DMEM. In order to assess possible cell lysis caused by melittin, propidium iodide was added for the final 5 min of incubation. […] However, if the plasma membrane has been damaged, propidium iodide enters the cell where it will brightly stain the nucleus. To process slides for analysis, cells were washed 3 times with cold phosphate buffered saline (PBS), fixed in PBS+4% formaldehyde for 20–30 min at 4° C., and washed again 3 times with cold PBS. Excess liquid was drained from coverslips which were then mounted onto glass slides. Fluorescence was then analyzed on a Zeiss LSM510 confocal microscope. FITC was excited by a 488 nm argon laser and fluorescence emission was detected by a long pass 505 nm filter. […] For cells incubated with unmodified melittin near 100% cell death was observed as determined by propidium iodide staining of nuclei and loss of cells from the sample.
# [2] = Hemolysis assay: peptides and derivatives as a function of pH; assay type: cell-based; conditions: 30 minutes, 37 C, read-out: Percent Hemolysis
# Experimental: The membrane-disruptive activity of the peptide melittin and subsequent blocking of activity by anionic polymers was measured using a red blood cell (RBC) hemolysis assay. RBCs were harvested by centrifuging whole blood for 4 min. They were washed three times with 100 mM dibasic sodium phosphate at the desired pH, and resuspended in the same buffer to yield the initial volume. They were diluted 10 times in the same buffer, and 200 uL of this suspension was used for each tube. This yields 10 ? 8 RBCs per tube. Each tube contained 800 uL of buffer, 200 uL of the RBC suspension, and the peptide with or without polymer. Each sample was then repeated to verify reproducibility. The tubes were incubated for 30 minutes in a 37 C water bath. They were spun for 5 min at full speed in the microcentifuge. Lysis was determined by measuring tIe absorbance of the supernatant at 541 nm, reflecting the amount of hemoglobin that had been released into the supernatant. Percent hemolysis was calculated assuming 100% lysis to be measured by the hemoglobin released by the red blood cells in water; controls of RBCs in buffer with no peptide were also run.
compound,measurement,setting,value
CC[C@H](C)[C@H](NC(=O)CNC(=O)/C(C)=C(/C)C(=O)O)C(=O)NCC(=O)N[C@@H](C)C(=O)N[C@H](C(=O)N[C@@H](CC(C)C)C(=O)N[C@@H](CCCCNC(=O)/C(C)=C(/C)C(=O)O)C(=O)N[C@H](C(=O)N[C@@H](CC(C)C)C(=O)N[C@H](C(=O)N[C@H](C(=O)NCC(=O)N[C@@H](CC(C)C)C(=O)N1CCC[C@H]1C(=O)N[C@@H](C)C(=O)N[C@@H](CC(C)C)C(=O)N[C@H](C(=O)N[C@@H](CO)C(=O)N[C@@H](Cc1c[nH]c2ccccc12)C(=O)N[C@H](C(=O)N[C@@H](CCCCNC(=O)/C(C)=C(/C)C(=O)O)C(=O)N[C@@H](CCCNC(=N)N)C(=O)N[C@@H](CCCCNC(=O)/C(C)=C(/C)C(=O)O)C(=O)N[C@@H](CCCNC(=N)N)C(=O)N[C@@H](CCC(N)=O)C(=O)N[C@@H](CCC(N)=O)C(N)=O)[C@@H](C)CC)[C@@H](C)CC)[C@@H](C)O)[C@@H](C)O)C(C)C)C(C)C [DM-Melittin],endosomal release of FITC-dextran,[1],release of dextran from endosomes
CC[C@H](C)[C@H](NC(=O)CNC(=O)CCC(=O)O)C(=O)NCC(=O)N[C@@H](C)C(=O)N[C@H](C(=O)N[C@@H](CC(C)C)C(=O)N[C@@H](CCCCNC(=O)CCC(=O)O)C(=O)N[C@H](C(=O)N[C@@H](CC(C)C)C(=O)N[C@H](C(=O)N[C@H](C(=O)NCC(=O)N[C@@H](CC(C)C)C(=O)N1CCC[C@H]1C(=O)N[C@@H](C)C(=O)N[C@@H](CC(C)C)C(=O)N[C@H](C(=O)N[C@@H](CO)C(=O)N[C@@H](Cc1c[nH]c2ccccc12)C(=O)N[C@H](C(=O)N[C@@H](CCCCNC(=O)CCC(=O)O)C(=O)N[C@@H](CCCNC(=N)N)C(=O)N[C@@H](CCCCNC(=O)CCC(=O)O)C(=O)N[C@@H](CCCNC(=N)N)C(=O)N[C@@H](CCC(N)=O)C(=O)N[C@@H](CCC(N)=O)C(N)=O)[C@@H](C)CC)[C@@H](C)CC)[C@@H](C)O)[C@@H](C)O)C(C)C)C(C)C [Succinyl Melittin],hemolysis,[2]; pH 5.4,5%
same,hemolysis,[2]; pH 7.5,2%
